Columns and labels:
[1] = test system: C57BL6/J/129S5 hybrid male mice; assay: Male fertility, fertilization and embryo developmental potential
Protocol: Oocytes from these females were collected from their oviductal ampulla and cultured for 2 days to determine their developmental potential post-mating (FIG. 6B).
(§1) The subsequent mixture was injected intraperitoneal into male mice at 1% of the body weight of the mouse (final amount is 50 mg/kg/day). The control was DMSO dissolved 1:10 in (2-Hydroxypropyl)-β-cyclodextrin and injected similarly. […] These studies were approved by the Administrative Committee on Laboratory Animal Care at Baylor College of Medicine, and all experiments were conducted in accordance with the NIH guide for the Care and Use of Laboratory Animals.

[2] = test system: mouse testes spermatogenesis genes; details: males treated 6-12 weeks of age
[3] = test system: C57BL6/J/129S5 hybrid male mice
Protocol: as §1

[4] = test system: C57BL6/J/129S5 hybrid male mice; assay: Mouse study: testes size and histology after daily i.p. JQ1; details: 50 mg/kg/day i.p.
Protocol: as §1

Cc1sc2c(c1C)C(c1ccc(Cl)cc1)=NC(CC(=O)OC(C)(C)C)c1nnc(C)n1-2 (racemic) [JQ1, tert-Butyl 2-(4-(4-chlorophenyl)-2,3,9-trimethyl-6H-thieno[3,2-f][1,2,4]triazolo[4,3-a][1,4]diazepin-6-yl)acetate]
oocytes developed into 4 cell embryos ([1]; females mated to males treated 5 weeks, control 70.1%): 6.6%
oocytes developed into 2 cell embryos ([1]; females mated to males treated 5 weeks, control 72.8%): 10.1%
pups per litter after cessation ([1]; within the first month following cessation of JQ1): 7.25+/−0.58 pups per litter
Hist1h1t mRNA downregulation [2]: 2.6 fold
Plzf mRNA enrichment in testes versus control [2]: 2.0 fold
Stra8 mRNA enrichment in testes versus control [2]: 1.3 fold
epididymal sperm number, % of control ([3]; 50 mg/kg/day i.p., after 3 weeks of treatment, entire epididymis): 27.8 % of the control
sperm in the cauda epididymis, % of control ([3]; 50 mg/kg/day i.p., after 6 weeks of treatment): 10.9 % of the control
spermatozoa with progressive motility ([3]; cauda epididymis sperm, control 85%): 5%
testes volumes, reduction to % of control ([4]; treated for 6 weeks (6-12 weeks of age)): 40.6 % of the controls
testes volumes, reduction to % of control ([4]; treated from 3-6 weeks of age): 75.4 % of control
testes volumes, reduction to % of control ([4]; treated from 6-9 weeks of age): 54.7 % of controls
